Data taken from patent EP4570800A1, “CRYSTAL FORM OF PYRIDINOPYRIMIDINONE COMPOUND, ACID SALT THEREOF, CRYSTAL FORM OF ACID SALT THEREOF, AND USE” (Wuhan Humanwell Innovative Drug Research and Development …, priority 2022, dated 2024).

Tested on: NCI-H1975 non-small cell lung cancer
Experiment: In vivo efficacy test of NCI-H1975 non-small cell lung cancer (combination with osimertinib)
Parameters: species or system mice
Conditions: 1 mg/kg, QD
Protocol: NCI-H1975 tumor cells were cultured in an incubator at 37°C and 5% CO2 using medium containing inactivated RPMI 1640 + 10% FBS. After reaching a confluency rate of 80 to 90%, the cells were passaged by subculturing. After one week of adaptive feeding in mice, NCI-H1975 cells in logarithmic phase were inoculated subcutaneously into the right flank of mice at a concentration of 5 × 10^6/100 µL. Tumor growth was regularly monitored until the tumors reached an average volume of 100 to 150 mm^3. […] Tumor size and animal weight were measured and recorded before and during the administration process. The differences in tumor size between the model group and administration group were compared to determine the efficacy.

Q: Which “Tumor weight inhibition rate (relative to the vehicle group)” value does the source give for C=CC(=O)Nc1cc(Nc2nccc(-c3cn(C)c4ccccc34)n2)c(OC)cc1N(C)CCN(C)C [Osimertinib] here?
A: 22%
